The source of these data is publication PMC7321103, “In Vitro Metabolic Transformation of Pharmaceuticals by Hepatic S9 Fractions from Common Carp (Cyprinus carpio)” (Molecules, 2020).

This data set deals with common carp hepatic S9 fraction. The data set can be described thus: TNBP metabolite formation by common carp hepatic S9 (S9 characterization). The settings on record: common carp hepatic S9, 2 µM TNBP.

In the case of tris(n-butyl) phosphate, the TNBP metabolite production entry is listed as “+”.
